# Patent US9458104B2 (dated 2016)
# Experiments:
# [1] = biological target: RORγ (UniProt P51449); conditions: 293T cells, 16 h; for pIC50 (FF): firefly (FF) luciferase; for pIC50 (REN): renilla normalised (RENnorm) luciferase
# [2] = biological target: RORγ ligand binding domain (LBD) (Homo sapiens, UniProt P51449); assay: TR-FRET Activity Assay (ligand sensing assay, RORγ-LBD / coactivator peptide interaction)
Compound,pIC50 (FF) [1],pIC50 (REN) [1],IC50 [2] [nM]
COCCNC(=O)c1nn(-c2cc(C(C)(C)C)cc(C(C)(C)C)c2)c(CC2CCCCC2)c1Cl [103/3],< 4.7,< 4.7,398
CC(C)(C)c1cc(-c2nc(C(=O)N3CCOCC3)nn2CC2CCCCC2)cc(C(C)(C)C)c1O [308/5],5.5,< 4.7,3980
"Cc1c(C(=O)NCC(C)(C)O)cn(-c2cc(C(C)(C)C)cc(C(C)(C)C)c2)c1CC1CCCCC1 [Example 1, 5-(Cyclohexylmethyl)-1-(3,5-di-tert-butylphenyl)-N-(2-hydroxy-2-methylpropyl)-4-methyl-1H-pyrrole-3-carboxamide]",7.3,7.3,126
"CC1(CNC(=O)c2nn(-c3cc(C(C)(C)C)nc(C(C)(C)C)c3)c(CC3CCCCC3)c2C(F)(F)F)COC1 [Example 107, 5-(Cyclohexylmethyl)-1-(2,6-di-tert-butylpyridin-4-yl)-N-((3-methyloxetan-3-yl)methyl)-4-(trifluoromethyl)-1H-pyrazole-3-carboxamide]",< 4.7,< 4.7,1260
"CC1(CNC(=O)c2nn(-c3cc(C(C)(C)C)nc(C(C)(C)C)c3)c(CC3CCCCC3)c2F)COC1 [Example 106, 5-(Cyclohexylmethyl)-1-(2,6-di-tert-butylpyridin-4-yl)-4-fluoro-N-((3-methyloxetan-3-yl)methyl)-1H-pyrazole-3-carboxamide]",6.7,6.6,126
"Cc1cc(-n2nc(C(N)=O)c(Cl)c2CC2CCCCC2)cc(C(C)(C)C)c1 [Example 314, 1-(3-(tert-butyl)-5-methylphenyl)-4-chloro-5-(cyclohexylmethyl)-1H-pyrazole-3-carboxamide]",5.6,5.5,3980
CC(C)(C)c1cc(-n2nc(C(=O)NCCO)c(Cl)c2CC2CCCCC2)cc(C(C)(C)C)c1 [103/4],< 4.7,< 4.7,1000
CC(C)(C)c1cc(-n2nc(C(=O)NCCN3CCOCC3)c(Cl)c2CC2CCCCC2)cc(C(C)(C)C)n1 [104/3],6.7,6.5,158
Cc1c(C(=O)NC2CCOCC2)cn(-c2cc(C(C)(C)C)cc(C(F)(F)F)c2)c1CC1CCCCC1 [1/6],7.2,7.2,251
Cc1c(C(=O)NC2CCOCC2)cn(-c2cc(C(C)(C)C)cc(C3(C)CC3)c2)c1CC1CCCCC1 [1/2],7.5,7.4,316
"Cc1c(C(N)=O)nn(-c2cc(C(C)(C)C)cc(C(C)(C)C)c2)c1CC1CCCCC1 [Example 311, 5-(Cyclohexylmethyl)-1-(3,5-di-tert-butylphenyl)-4-methyl-1H-pyrazole-3-carboxamide]",6.0,5.9,316
CC(C)(C)c1cc(-n2nc(C(=O)NC3COC3)c(Cl)c2CC2CCCCC2)cc(C(C)(C)C)c1 [Example 103/1],6.6,6.7,200
CC(C)(O)CNC(=O)c1nn(-c2cc(C(C)(C)C)nc(C(C)(C)C)c2)c(CC2CCCCC2)c1Cl [104/2],6.5,6.5,158
Cc1c(C(=O)NC2CCOCC2)cn(-c2cc(C(C)(C)C)c3c(c2)C2(CCO3)CC2)c1CC1CCCCC1 [1/3],6.9,6.9,794
CC(C)(C)c1cc(-n2nc(C(=O)NC3COC3)c(Cl)c2CC2CCCCC2)cc(C(C)(C)C)n1 [Example 104/1],6.4,6.3,158
